The numbers were not newly measured in patent US20240377385A1, “METHODS AND COMPOSITIONS OF MATTER FOR TREATING CANCER AND PREDICTING RESPONSE TO THERAPY” (ICCA INC., priority 2023, published 2024), which cites them from elsewhere.

The data set has as its system metastatic colorectal cancer. The following applies: cetuximab added to a protocol of bevacizumab and chemotherapy; cited from earlier work.

With cetuximab, the survival result is recorded as “decreased survival”.
